Source: patent US20250099491A1, “PREVENTION OR TREATMENT OF CARDIOVASCULAR DISEASES WITH HIGH PENETRATION PRODRUGS OF ASPIRIN AND OTHER NSAIDS” (Techfields Inc., priority 2022, published 2025)

Test system: patients with ischemic strokes
Experiment: Phase 2 clinical study of spray in patients with ischemic strokes
Assay type: in vivo, human
Experimental: Each patient enrolled in Group A was administered the investigational drug in a double-blind manner for 16 weeks starting between 3 and 60 days after the onset of stroke symptoms (Day 1 of the study). The patients and/or their caregivers were instructed how to apply the investigational drug accurately so that patients or their caregivers would administer 20 sprays/dose of either the investigational drug or placebo twice daily (approximately every 12 hours) for a total daily dose of 280 mg of investigational drug. The 20 sprays of investigational drug were administered as follows: 4 sprays around the neck, 2 sprays to the left shoulder, 2 sprays to the right shoulder, 6 sprays to the chest, 3 sprays to the left leg, and 3 sprays to the right leg. Each spray was sprayed on a different area of the skin to reach maximum absorption. The patient would wait for at least 5 minutes to dress after the last spray so that the skin became completely dry.
Patients were asked to return to the study site at Weeks 4, 8, 12, and 16 for efficacy and safety assessments. After the Week 16 assessments had been performed, patients would start the open-label period of the study the next day and receive active treatment in an open-label manner through the end of the study (EOS) at Week 32. That is, patients who were receiving active treatment would continue to receive active treatment, and patients who were receiving placebo would switch to active treatment for the remaining 16 weeks of the study. Patients would receive only 1 dose of investigational drug on the Week 16 visit day. Patients would return to the study site at Week 24 and Week 32 (EOS) for efficacy and safety assessments. An Early Termination visit would occur if the patient was discontinued from the study prematurely. Patients would have a follow-up visit approximately 14 days after the Early Termination visit or the Week 32 (EOS) visit.
The spray bottle deposits […] of spray solution and 7 mg 2-(diethylamino)ethyl acetoxybenzoate free base per spray on the skin. Subjects were to apply each spray to a different skin area around the neck, chest, legs and arms based on the randomized dose level assigned.

Compound: CCN(CC)CCOC(=O)c1ccccc1OC(C)=O.Cl [Compound-1]
- Barthel Index (5 Sprays (35 mg/dose bid), Week 4): 52.3 ± 11.4
- Barthel Index (5 Sprays (35 mg/dose bid), Week 8): 58.2 ± 11.3
- Barthel Index (5 Sprays (35 mg/dose bid), Week 16): 65.2 ± 10.1
- Barthel Index (5 Sprays (35 mg/dose bid), Week 24): 75.8 ± 8.8
- Barthel Index (5 Sprays (35 mg/dose bid), Week 32): 83.6 ± 6.8
- Barthel Index (5 Sprays (35 mg/dose bid), baseline): 48.4 ± 11.0
- Barthel Index (10 Sprays (70 mg/dose bid), Week 4): 58.9 ± 10.6
- Barthel Index (10 Sprays (70 mg/dose bid), Week 8): 75.3 ± 9.9
- Barthel Index (10 Sprays (70 mg/dose bid), Week 16): 92.2 ± 7.3
- Barthel Index (10 Sprays (70 mg/dose bid), Week 24): 96.9 ± 3.9
- Barthel Index (10 Sprays (70 mg/dose bid), Week 32): 99.0 ± 2.0
- Barthel Index (10 Sprays (70 mg/dose bid), baseline): 49.4 ± 11.8
- Barthel Index (20 Sprays (140 mg/dose bid), Week 4): 61.5 ± 12.0
- Barthel Index (20 Sprays (140 mg/dose bid), Week 8): 81.4 ± 9.7
- Barthel Index (20 Sprays (140 mg/dose bid), Week 16): 95.5 ± 5.7
- Barthel Index (20 Sprays (140 mg/dose bid), Week 24): 98.5 ± 2.9
- Barthel Index (20 Sprays (140 mg/dose bid), Week 32): 99.4 ± 1.6
- Barthel Index (20 Sprays (140 mg/dose bid), baseline): 50.3 ± 12.5
